Laboratory results taken from patent US9534007B2, “Methods and compositions for treatment of cyanide and hydrogen sulfide toxicity” (dated 2017).

Experiments:
[1] = Cobinamide and hydroxocobalamin content of the flies
[2] = Range-finding toxicity studies; conditions: mice and rats
[3] = Reaction of sulfide with cobinamide (UV-vis spectrum); conditions: 25 μM cobinamide with water and hydroxyl ligands, NaSH 6.25 to 250 μM
[4] = Absorption after injection; conditions: for absorption after intramuscular injection: in vivo
[5] = Stability in aqueous solution

Substance	drug content of flies ([1]; 100 μM fed flies)	drug content of flies ([1]; 200 μM fed flies)	absorption after intramuscular injection [4]	stability relative to aquohydroxocobinamide [5]	further results
cobinamide	1.85 µM	1.72 µM			dose limiting toxicity [2]: acute transient coagulation abnormalities; sulfide molecules consumed and bound [3]: consumes and binds two sulfide molecules
dinitrocobinamide			absorbed after intramuscular injection	even more stable than aquohydroxocobinamide	
hydroxocobalamin	1.59 µM	3.4 µM			
sulfitocobinamide			absorbed after intramuscular injection	even more stable than aquohydroxocobinamide	
trimethylaminoethyl-cobinamide					absorption ([4]; route not stated): not well absorbed
